Laboratory results taken from patent US20210186880A1, “ORAL FORMULATIONS WITH INCREASED UPTAKE” (Brown University, priority 2018, published 2021).

Conditions: rat, in vivo

In the case of poly(lactic acid) [PLA], the “detection in red blood cells pellet” value is reported as “nothing was detected”.
